# The list shows a part of the results, in another mix than the full data. Some salts and complexes are drawn in separate pieces, as the source files them; their charges need not balance. The source made the active and inactive calls. The call rests on the fitted dose curve; in most records, active means well fitted inhibition curve with a large enough effect; inconclusive means small, poorly fitted or top-dose-only effect; inactive means no such curve, though single readings can be large or run the other way.
# By UniProt entry, the sequences of proteins in these tests, tags left out.
# UniProt O89049, whole entry: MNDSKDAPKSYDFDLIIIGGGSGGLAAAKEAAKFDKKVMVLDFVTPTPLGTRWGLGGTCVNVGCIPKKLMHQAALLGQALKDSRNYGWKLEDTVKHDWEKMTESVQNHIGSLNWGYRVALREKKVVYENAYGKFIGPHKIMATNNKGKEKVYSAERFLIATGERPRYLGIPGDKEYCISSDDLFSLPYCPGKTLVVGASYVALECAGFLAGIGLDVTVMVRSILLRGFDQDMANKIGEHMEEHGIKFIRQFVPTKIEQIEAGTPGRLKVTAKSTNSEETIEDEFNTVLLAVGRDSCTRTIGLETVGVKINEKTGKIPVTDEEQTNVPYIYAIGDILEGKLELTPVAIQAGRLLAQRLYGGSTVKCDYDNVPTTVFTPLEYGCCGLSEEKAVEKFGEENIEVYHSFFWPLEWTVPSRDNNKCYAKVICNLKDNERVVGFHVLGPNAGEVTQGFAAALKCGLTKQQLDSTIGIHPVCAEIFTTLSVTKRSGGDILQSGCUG
# Molecular target: Thioredoxin reductase 1, cytoplasmic (Rattus norvegicus) (UniProt O89049)
# Test: qHTS Assay for Substrates of Mammalian Selenoprotein Thioredoxin Reductase 1 (TrxR1): qHTS; further: nearly all actives have a fitted effect of over 50% in size
# Settings: purified TrxR1 substrate turnover, NADPH consumption readout; at 114 µM (top of the series) unless noted
# On the % scale 0 is the no-effect control and ±100 the full control effect.
row,Compound,"activity change, negative = substrate turnover"
1,CC(C)c1ccc(C(=O)NCC2(N3CCOCC3)CCCCC2)cc1,inactive: -3.78%
2,COc1ccc(NC2CCN(C(=O)OC(C)(C)C)CC2)cc1,inactive: 2.44%
3,CN1CCN(CCOC(=O)C(O)(c2ccccc2)c2ccccc2)CC1,inactive: -4.48%
4,O=C(NCC1(N2CCOCC2)CCCCC1)c1cc(=O)[nH]c2ccccc12,inactive: 13.4% [at 57.1 µM]
5,COc1cc(C(=O)NCC2(N3CCCCC3)CCCCC2)ccc1OC(F)F,inactive: 2.83%
6,O=C(NCC1(N2CCCCC2)CCCCC1)c1cccc(C(F)(F)F)c1,inactive: 6.28%
7,CCCOc1cccc(C(=O)NCC2(N3CCOCC3)CCCCC2)c1,inactive: -3.78%
8,O=[N+]([O-])c1cc([N+](=O)[O-])c(NCC2CCS(=O)(=O)C2)c([N+](=O)[O-])c1 (stereo not drawn),inactive: 8.78% [at 57.1 µM]
9,CCOc1ccc(C(=O)NCC2(N3CCOCC3)CCCCC2)cc1,inactive: 0.169%
10,O=C(NCC1(N2CCCCC2)CCCCC1)c1cccc([N+](=O)[O-])c1,inactive: -0.431%
11,CSc1ccc(C(=O)NCC2(N3CCOCC3)CCCCC2)cc1,inactive: -5.88%
12,CCN1CCC(Nc2ccc(Cl)cc2)CC1,inactive: 3.94%
13,N#CC1(Nc2ccccc2)CCN(CCc2ccccc2)CC1,inactive: 8.1%
14,O=C(NCC1(N2CCCCC2)CCCCC1)c1ccc(OC(F)F)cc1,inactive: 6.35% [at 57.1 µM]
15,CCCCOc1ccccc1C(=O)NCC1(N2CCOCC2)CCCCC1,inactive: 1.16%
16,O=C(NCC1(N2CCOCC2)CCCCC1)c1ccccc1Br,inactive: 2.04%
17,CCCOc1ccc(C(=O)NCC2(N(C)C)CCCCC2)cc1OC,inactive: -3.3%
18,CN1CCC(Nc2cccc(F)c2)CC1,inactive: -4.75%
19,COc1ccc2c(c1O)-c1c(O)c(OC)cc3c1[C@H](C2)[N+](C)(C)CC3.O=[N+]([O-])c1cc([N+](=O)[O-])c([O-])c([N+](=O)[O-])c1[O-],inactive: 130%
20,O=C(NCC1(N2CCCCC2)CCCCC1)c1cncc(Br)c1,inactive: -3.77%
21,O=C(OC1CN2CCC1CC2)c1ccc([N+](=O)[O-])cc1 (stereo not drawn),inactive: 15.9%
22,COc1cc(OC)c(C(=O)NCC2(N(C)C)CCCCC2)cc1OC,inactive: 10.4%
23,O=C(NCC1(N2CCOCC2)CCCCC1)c1cc(F)c(F)cc1Cl,inactive: 3.36%
24,COc1ccc(CN(CCCl)CCCl)cc1Cl,inactive: 5.88%

row,Compound,"activity change, negative = substrate turnover"
1,CN(C)c1cccc(C(=O)NCC2(N3CCCCC3)CCCCC2)c1,inactive: 3.68%
2,O=[N+]([O-])c1cc([N+](=O)[O-])c(OC2CCCCC2O)c([N+](=O)[O-])c1 (stereo not drawn),inactive: -16.3% [at 57.1 µM]
3,CC(C)c1ccc(NC2CCN(C(=O)OC(C)(C)C)CC2)cc1,inactive: -16.3% [at 57.1 µM]
4,CCOC(=O)N1CCC(Nc2ccc(OC)cc2)CC1,inactive: 1.67%
5,O=C(NCC1(N2CCCCC2)CCCCC1)c1ccc(Cl)s1,inactive: 0.0773%
6,N#CC1(Nc2ccccc2)CCN(Cc2ccccc2)CC1,inactive: -4.81%
7,O=C(OC1CN2CCC1CC2)C1c2ccccc2Oc2ccccc21 (stereo not drawn),inactive: 8.07%
8,COc1ccc(Cl)cc1C(=O)NCC1(N2CCOCC2)CCCCC1,inactive: 3.98%
9,O=C1C(O)=C([N+](=O)[O-])C(=O)C(O)=C1[N+](=O)[O-],inactive: -14.3%
10,O=C(NCC1(N2CCOCC2)CCCCC1)c1cc2ccccc2o1,inactive: 4.8%
11,O=C(NCC1(N2CCCCC2)CCCCC1)c1ccc(Cl)nc1,inactive: 2.2% [at 57.1 µM]
12,Cc1cc(C)cc(N(C(=O)c2ccccc2)C2CCN(C(=O)OC(C)(C)C)CC2)c1,inactive: -13.1%
13,CSc1ccccc1C(=O)NCC1(N2CCCCC2)CCCCC1,inactive: 1.06%
14,Cc1cccc(NC2(C#N)CCN(Cc3ccccc3)CC2)c1,inactive: 8.15% [at 57.1 µM]
15,O=C(NCC1(N2CCCCC2)CCCCC1)c1ccc(=O)[nH]c1,inactive: 6.51%
16,O=C(NCC1(N2CCCCC2)CCCCC1)c1cccs1,inactive: 3.93%
17,COc1ccc(C(=O)NCC2(N3CCCCC3)CCCCC2)cc1,inactive: 2.67% [at 57.1 µM]
18,CC(C)(C)OC(=O)N1CCC(N(C(=O)c2ccccc2)c2ccc(F)cc2)CC1,inactive: 3.06%
19,COc1ccc(C(=O)NCC2(N3CCCCC3)CCCCC2)c(OC)c1OC,inactive: -0.494%
20,CCOC(=O)N1CCC(Nc2cccc(C)c2)CC1,inactive: 2.29%
21,COc1cc(C(=O)NCC2(N(C)C)CCCCC2)ccc1OC(F)F,inactive: 4%
22,CCCCOc1ccc(C(=O)NCC2(N3CCOCC3)CCCCC2)cc1,inactive: -11.8%
23,O=P1(N(CCCl)CCCl)SCCCS1,inactive: 5.69%
24,CCOC(=O)N1CCC(Nc2ccc(F)cc2)CC1,inactive: 0.932%

# Source: PubChem BioAssay AID588456 (National Center for Advancing Translational Sciences (NCATS), 2011)
